Reference: patent US20190359697A1 (Scripps Research, published 2019)

Sequences of proteins named here, by UniProt entry; tags and fusion partners are left off. Residues count along the entry.
UniProt P15391, 20-556: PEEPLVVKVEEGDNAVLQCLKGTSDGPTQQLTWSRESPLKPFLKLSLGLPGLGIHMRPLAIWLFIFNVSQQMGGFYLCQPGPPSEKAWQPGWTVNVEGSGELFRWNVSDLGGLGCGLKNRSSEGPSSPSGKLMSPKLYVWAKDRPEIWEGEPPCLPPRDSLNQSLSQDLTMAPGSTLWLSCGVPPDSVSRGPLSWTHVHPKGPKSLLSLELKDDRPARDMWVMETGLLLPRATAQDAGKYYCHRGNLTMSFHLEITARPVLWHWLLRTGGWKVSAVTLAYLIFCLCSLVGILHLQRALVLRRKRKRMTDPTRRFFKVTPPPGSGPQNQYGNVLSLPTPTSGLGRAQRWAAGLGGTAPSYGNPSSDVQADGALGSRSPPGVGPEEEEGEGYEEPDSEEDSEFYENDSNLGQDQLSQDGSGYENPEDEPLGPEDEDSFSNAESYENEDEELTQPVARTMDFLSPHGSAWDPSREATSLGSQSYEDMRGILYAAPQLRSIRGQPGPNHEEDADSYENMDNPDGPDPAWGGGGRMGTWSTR

What was measured:
[1] = target: CD19 (UniProt P15391); assay: flow cytometry cell binding; FIG. 8
[2] = target: CD19 (UniProt P15391); assay: flow cytometry cell binding; FIG. 9; WT switch (no PNE)

| EC50 [1] [nM] | EC50 [2] [nM] | Substance |
| --- | --- | --- |
| 1.1 | – | FMC63 wt |
| – | 0.971 | murine FMC63 WT |
